Earlier results, collected in patent publication US20020198215A1, “Terazosin transdermal device and methods” (priority 2000, published 2002).

Conditions: cited from earlier work

## COc1cc2nc(N3CCN(C(=O)C4CCCO4)CC3)nc(N)c2cc1OC (stereo not drawn) [terazosin, Terazosin]
In vivo
  excretion in the feces (unchanged drug and metabolites): 60%
  excretion in the urine (unchanged drug and metabolites): 40%
Oral administration
  absorption following oral administration: almost completely absorbed
